# Laboratory results: patent US6420532 (SYNAPTIC PHARMACEUTICAL, dated 2002)
# Chains of the proteins cited; added tags and fusions are not shown. A change or cut given only in a name is not applied to a line headed by its entry. A line that says so, or that is headed by a name, gives the form on record, which may keep a tag or linker.
# Y2-like receptor population expressed by human SK-N-Be(2) neuroblastoma cells, one chain, as listed by the source: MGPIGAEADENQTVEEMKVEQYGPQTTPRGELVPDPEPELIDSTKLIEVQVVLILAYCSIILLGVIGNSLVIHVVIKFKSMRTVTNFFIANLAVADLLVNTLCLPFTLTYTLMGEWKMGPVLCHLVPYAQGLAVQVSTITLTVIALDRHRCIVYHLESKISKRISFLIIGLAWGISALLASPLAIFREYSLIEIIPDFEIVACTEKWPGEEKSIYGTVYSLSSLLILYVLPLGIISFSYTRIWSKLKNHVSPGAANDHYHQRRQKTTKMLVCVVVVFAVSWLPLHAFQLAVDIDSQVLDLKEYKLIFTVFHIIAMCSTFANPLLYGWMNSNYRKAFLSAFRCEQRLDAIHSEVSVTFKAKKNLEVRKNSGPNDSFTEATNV
# T1: rat Y2a receptor (encoded by rs5a) (rat)
# T1 chain: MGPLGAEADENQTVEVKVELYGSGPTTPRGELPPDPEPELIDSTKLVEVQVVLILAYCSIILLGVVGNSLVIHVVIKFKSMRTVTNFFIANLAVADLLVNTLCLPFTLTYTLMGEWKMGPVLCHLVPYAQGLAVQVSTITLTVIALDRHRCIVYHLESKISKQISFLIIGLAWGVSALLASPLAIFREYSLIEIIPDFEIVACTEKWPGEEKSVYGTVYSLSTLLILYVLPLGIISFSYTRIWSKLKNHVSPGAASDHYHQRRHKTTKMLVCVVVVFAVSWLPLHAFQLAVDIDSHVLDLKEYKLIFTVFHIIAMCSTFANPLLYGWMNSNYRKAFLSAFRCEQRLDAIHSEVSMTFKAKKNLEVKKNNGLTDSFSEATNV
# B1: porcine NPY20-36 (peptide, UniProt P01304 29-45, looked up)
# peptide: YYSALRHYINLITRQRY
# modifications: C-terminal amide
# notes: range 20-36; also called NPY20-36, porcine
# Key:
# [1] = target: T1, rat Y2a receptor (encoded by rs5a); test: 125I-PYY displacement, COS-7 membranes, Ki from IC50
# [2] = target: Y2-like receptor population expressed by human SK-N-Be(2) neuroblastoma cells (human); test: 125I-PYY displacement, SK-N-Be(2) membranes, Ki from IC50
Binder,Ki [1],Ki [2]
"PAEDMARYYSALRHYINLITRQRY (peptide, UniProt P01303 41-64, looked up, C-terminal amide, range 13-36) [NPY13-36, human]",31 nM,–
B1,93 nM,3.1 nM
